Test results from PubChem BioAssay (NCI).
Where “and” joins values, the source holds several entries; their conditions need not be identical. Equal values may be shown once. This is a selection; strong and weak results do not stand in their true shares.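 Single-dose data. Exposure time 48 hours. Values below 10 considered active.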 Calls of active or inactive are those of the source.

Test system: MDA-MB-468 breast
Assay: NCI-60 one-dose screen, 48 h (100 = growth as untreated, 0 = no growth, -100 = all killed)
Settings: 10 µM unless noted

Row | SMILES | growth
1 | COc1ccc(C2N=C(NN=C(CCl)CCl)SP2(=O)Nc2ncccn2)c(OC)c1 (stereo not given) | inactive: 92.9% [100 µM]
2 | Cc1ccc(NCCCl)c2c(=O)c3ccccc3sc12 | inactive: 98%
3 | NCCc1ccc(N(CCCl)CCCl)cc1 | inactive: 10.1%
4 | CC(C)=N/N=C(\N)N[N+](=O)[O-] | inactive: 109%
5 | Nc1ccccc1[As](=O)(O)c1ccccc1 | inactive: 103%
6 | Nc1ccc([As](=O)(O)c2ccc(N)cc2)cc1 | inactive: 116%
7 | CCOP(=O)(CCBr)OCC | inactive: 99.8% and inactive: 95.6%
8 | O=P(CCl)(Sc1ccc(Cl)cc1)N(CCCl)CCCl (stereo not given) | inactive: 90%
9 | Cc1ccccc1OP(=O)(Cl)Oc1ccccc1C | inactive: 97.4%
10 | Cc1cc([N+](=O)[O-])cc([N+](=O)[O-])c1O | inactive: 98.1%
11 | CCOC(=O)NC(c1ccccc1[N+](=O)[O-])P(=O)(O)Nc1ncn[nH]1 (stereo not given) | inactive: 119%
12 | COc1cc([N+](=O)[O-])cc([N+](=O)[O-])c1 | inactive: 107%
13 | COc1cc([N+](=O)[O-])c(Nc2ccc(Cl)cc2[N+](=O)[O-])c([N+](=O)[O-])c1 | inactive: 40.4%
14 | CCCCOP(=O)(OCCCC)N1CCCC1C(=O)O (stereo not given) | inactive: 106%
15 | O=[N+]([O-])c1cc2cn[nH]c2cc1[N+](=O)[O-] | inactive: 114%
16 | O=P1(N(CCCl)CCCl)OCCC2CCCCN21 (stereo not given) | inactive: 116%
17 | CN(C)C(=O)Oc1ccc(/C=N/NC(N)=S)nc1 | inactive: 87.3%
18 | ClCCN(Cc1ccc(Cl)cc1)Cc1ccc(Cl)cc1 | inactive: 63.2%

Row | SMILES | growth
19 | O=P1(N(CCCl)CCCl)Nc2ccccc2N1 | inactive: 105%
20 | CCCCCCCCCCNP(=S)(Cl)Cl | inactive: 109%
21 | Cc1ccc(SP(=O)(CCl)N(CCCl)CCCl)cc1 (stereo not given) | inactive: 95.6%
22 | O=[As]c1ccc(S(=O)(=O)Nc2ccccc2)cc1 (stereo not given) | active: -40.7%
23 | NC(=S)N/N=C/c1ccc(N(CCF)CCCl)cc1 | inactive: 88.2%
24 | O=[As](O)(O)c1cccnc1 | inactive: 107%
25 | COC(=O)C1(C)COP(=O)(N2CCCCCC2)OC1 (stereo not given) | inactive: 115%
26 | CCOC(=O)NC(C)(CCC(C)(NC(=O)OCC)P(=O)(O)Nc1ncccn1)P(=O)(O)Nc1ncccn1 (stereo not given) | inactive: 99.2% [100 µM]
27 | [N-]=[N+]=NC(=O)c1cccc([N+](=O)[O-])c1 | inactive: 37.8%
28 | CC(=O)Nc1ccc([As](=O)(O)O)cc1 | inactive: 106%
29 | O=c1ccc(Oc2ccc([N+](=O)[O-])cc2[N+](=O)[O-])nn1-c1ccc([N+](=O)[O-])cc1[N+](=O)[O-] | active: -59.6%
30 | CCOC(=O)c1sc2ncnc(NCCCl)c2c1C | inactive: 91.1%
31 | O=C(O)CCc1ccc(N(CCCl)CCCl)cc1 | inactive: 94.5%
32 | O=C(O[C@H]1CN2CCC1CC2)C1NCc2ccccc2[C@@H]1c1ccccc1 (stereo not given in full) | inactive: 93.1%
33 | CCCCCCC(C)OP(O)OC(C)CCCCCC (stereo not given) | inactive: 97.1%
34 | O=[N+]([O-])c1ccc(CCCCCCc2ccc([N+](=O)[O-])cc2[N+](=O)[O-])c([N+](=O)[O-])c1 | inactive: 96.3%
35 | O=Cc1sc(N(CCCl)CCCl)nc1Cl | inactive: 109%
